The record followed here is ChEMBL document CHEMBL1142933, “Rational design of novel, potent small molecule pan-selectin antagonists” (J Med Chem, 2007).

Each structure is given as a SMILES string.

This experiment has as its target T1, E-selectin (Homo sapiens, UniProt P16581).
T1 sequence (P16581 whole entry): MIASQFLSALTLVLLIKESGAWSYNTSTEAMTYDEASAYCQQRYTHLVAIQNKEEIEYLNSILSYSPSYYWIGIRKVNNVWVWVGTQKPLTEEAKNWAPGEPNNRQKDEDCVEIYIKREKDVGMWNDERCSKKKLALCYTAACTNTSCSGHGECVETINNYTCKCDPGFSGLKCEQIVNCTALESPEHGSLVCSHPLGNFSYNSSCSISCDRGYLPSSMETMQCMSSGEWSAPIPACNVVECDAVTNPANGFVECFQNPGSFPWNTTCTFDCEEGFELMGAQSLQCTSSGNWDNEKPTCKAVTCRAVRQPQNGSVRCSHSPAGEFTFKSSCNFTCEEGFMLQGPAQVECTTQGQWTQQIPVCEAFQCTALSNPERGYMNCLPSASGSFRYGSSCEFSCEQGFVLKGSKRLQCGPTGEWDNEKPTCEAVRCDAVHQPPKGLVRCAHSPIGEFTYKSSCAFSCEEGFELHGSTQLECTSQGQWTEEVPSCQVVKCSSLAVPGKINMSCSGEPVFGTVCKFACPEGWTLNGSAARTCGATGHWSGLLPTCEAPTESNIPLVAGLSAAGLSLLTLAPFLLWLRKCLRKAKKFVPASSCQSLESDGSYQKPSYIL
Briefly: Inhibition of human E-selectin after 2 hrs. The gist of the method:
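Competitive ELISA: anti-human Fc-coated wells loaded with human E-, P- or L-selectin/Fc chimera (0.61 nM), 2 h 37 °C. Biotinylated sLeX-tyrosine sulfate polyacrylamide complexed with streptavidin-peroxidase added with compound at varying concentrations (HEPES pH 7.4, 1 mM CaCl2, 1% DMSO), 2 h 37 °C. TMB read-out, OD 450 vs 620 nm. IC50 by four-parameter logistic fit; maximum 500 µM.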

`O=C(O)Cc1cccc(-c2cc(CCCCCCc3ccc(O[C@H]4O[C@H](CO)[C@@H](O)[C@H](O)[C@@H]4O)c(-c4cccc(CC(=O)O)c4)c3)ccc2O[C@H]2O[C@H](CO)[C@@H](O)[C@H](O)[C@@H]2O)c1` [BIMOSIAMOSE] returned an IC50 of more than 500 µM.

The IC50 is the concentration that gives 50% inhibition. High values mean weaker potency in that assay, low ones greater potency in that assay.
